# Ab-14 light chain CDR variants: yeast mating affinities

Target peptide (SARS-CoV-2 spike, HR2 region): PDVDLGDISGINAS

Parent: Ab-14, a human scFv built as VH, three GGGGS repeats, VL. Only the CDRs of the light chain vary.
VH: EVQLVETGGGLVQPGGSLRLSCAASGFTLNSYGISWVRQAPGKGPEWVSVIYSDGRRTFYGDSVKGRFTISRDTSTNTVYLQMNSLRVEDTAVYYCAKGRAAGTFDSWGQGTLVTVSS
VL: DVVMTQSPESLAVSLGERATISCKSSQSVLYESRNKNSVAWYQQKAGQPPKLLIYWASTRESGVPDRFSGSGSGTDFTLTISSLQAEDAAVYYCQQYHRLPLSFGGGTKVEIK

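The starting antibody came from a phage panning campaign against this peptide. Designed CDR sequences, proposed from the first random library and measured here. Group labels follow the data file (En: ensemble of fine-tuned language models; GP: Gaussian process model; HC: hill climbing; Gen: genetic algorithm; Gibbs: Gibbs sampling; a sequence that several methods proposed may carry one label only). The assay is AlphaSeq: two haploid yeast populations carry antibody and antigen on their surface. Mating (16 h, 30 °C) was followed by selection of diploids and sequencing of their barcodes. Each replicate has its own calibration line, from reference interactions of the BCL2 family. Mating was done six times.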

Sequences are complete VL domains.
Variants here have more than six changes.
Each Kd is an estimate from the mating assay, the geometric mean of the replicates in which the pair was seen; lower is stronger.
The authors averaged sequences with at least three values out of six and counted those with two or fewer as poor binders.
As a blank, each scFv also met three strains without target: over all light chain designs, 4% of these pairings were detected, typically at 430 nM and seldom below 38 nM.
Values of this round are not directly comparable with the first-round values of the same sequences.

With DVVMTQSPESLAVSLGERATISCKLSMSQLYEWRNMNSVAWYQQKAGQPPKLLIYNASTREMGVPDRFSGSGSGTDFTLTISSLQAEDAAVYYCQQYHRLPLSFGGGTKVEIK [GP_Gibbs] the result was 2.2 nM (6 of 6 replicates). For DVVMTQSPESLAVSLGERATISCQIYQAMHTLSQKKNNVAWYQQKAGQPPKLLIYDVNERGSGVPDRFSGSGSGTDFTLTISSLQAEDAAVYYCQQYYRLPLSFGGGTKVEIK [En_Gen], the assay gave 1.2 nM (6 of 6 replicates). The variant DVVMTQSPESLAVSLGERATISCMISQMYNMGQFAINSVAWYQQKAGQPPKLLIYQASLRNEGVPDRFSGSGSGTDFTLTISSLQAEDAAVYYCQQYDRLPLIFGGGTKVEIK [En_Gen] showed 11 nM (6 of 6 replicates). With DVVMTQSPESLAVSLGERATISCKISYMGEVFSTNHSSIAWYQQKAGQPPKLLIYQASTREQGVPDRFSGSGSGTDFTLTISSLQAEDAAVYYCQQYHRLPLSFGGGTKVEIK [En_HC] the result was 10 nM (6 of 6 replicates). For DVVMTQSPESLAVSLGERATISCKIELDLTRYNAGGANIAWYQQKAGQPPKLLIYHETMKAQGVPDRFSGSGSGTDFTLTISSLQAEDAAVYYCQQYSHLPLIFGGGTKVEIK [En_Gibbs], the assay gave 63 nM (6 of 6 replicates). The variant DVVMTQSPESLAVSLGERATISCTISQMTSSFTQNINNVAWYQQKAGQPPKLLIYEVSTRCKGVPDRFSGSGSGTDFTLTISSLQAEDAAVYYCQQYDRLPLVFGGGTKVEIK [En_Gen] gave 1.5 nM (6 of 6 replicates). For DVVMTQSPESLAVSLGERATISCKLDLITNPGNLMHNSVAWYQQKAGQPPKLLIYAATVKWEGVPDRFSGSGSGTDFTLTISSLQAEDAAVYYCQQYSQLPLSFGGGTKVEIK [En_Gibbs], the assay gave 8.0 nM (6 of 6 replicates). For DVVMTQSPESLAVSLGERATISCMLSGVLHMLGTKKNSIAWYQQKAGQPPKLLIYDLVMRANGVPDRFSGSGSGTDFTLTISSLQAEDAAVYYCQQYQRLPLSFGGGTKVEIK [En_Gen], the assay gave 4.7 nM (3 of 6 replicates). For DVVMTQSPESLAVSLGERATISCNVGQHMLGESRNKNSVAWYQQKAGQPPKLLIYHQSTREDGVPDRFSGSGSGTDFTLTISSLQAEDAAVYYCQHYHRLPLSFGGGTKVEIK [En_HC], the assay gave 670 nM (1 of 6 replicates).

For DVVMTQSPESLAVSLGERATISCHLSLRLSYGNMLQKAVAWYQQKAGQPPKLLIYEVQARVTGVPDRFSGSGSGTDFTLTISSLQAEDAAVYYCQQYARLPLLFGGGTKVEIK [En_Gibbs], the assay gave 110 nM (1 of 6 replicates). For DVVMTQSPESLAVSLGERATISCMISMEEAPAGQQESSIAWYQQKAGQPPKLLIYHGGTKAEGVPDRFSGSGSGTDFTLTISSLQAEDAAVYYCQQYNRLPLAFGGGTKVEIK [En_Gibbs], the assay gave 3.0 nM (6 of 6 replicates). The variant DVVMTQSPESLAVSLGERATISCKVSEFMRGLMMRSDSIAWYQQKAGQPPKLLIYDNVTRNKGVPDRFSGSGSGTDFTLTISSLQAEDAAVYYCQQYDRLPLSFGGGTKVEIK [En_Gen] showed 32 nM (5 of 6 replicates). The variant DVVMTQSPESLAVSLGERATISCKVSQSVLQQSRNSNSVAWYQQKAGQPPKLLIYEASQREEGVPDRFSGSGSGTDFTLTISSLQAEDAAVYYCQQYHRLPLSFGGGTKVEIK [GP_Gibbs] showed 480 pM (6 of 6 replicates). The variant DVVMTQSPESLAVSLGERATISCMMKMPNHEVNFDKNSVAWYQQKAGQPPKLLIYEATTKESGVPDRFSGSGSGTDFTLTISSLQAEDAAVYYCQQYHRLPITFGGGTKVEIK [En_Gibbs] showed 6.1 nM (6 of 6 replicates). The variant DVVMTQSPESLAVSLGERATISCQFHQGMIGDQRNMHSIAWYQQKAGQPPKLLIYNAQAAVPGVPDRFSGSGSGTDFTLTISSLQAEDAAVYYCQYYFRLPLSFGGGTKVEIK [En_Gibbs] gave 17 nM (6 of 6 replicates). The variant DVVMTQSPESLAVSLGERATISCFLEQSTLYESRMKNSVAWYQQKAGQPPKLLIYNASTRCSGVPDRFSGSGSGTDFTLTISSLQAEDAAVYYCQQYHRLPLSFGGGTKVEIK [GP_Gibbs] gave 4.5 nM (6 of 6 replicates). For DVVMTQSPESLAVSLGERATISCKLRDQADGWTRNERNIAWYQQKAGQPPKLLIYDADHRGAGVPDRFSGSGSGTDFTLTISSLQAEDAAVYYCQQYSHLPLCFGGGTKVEIK [En_Gibbs], the assay gave 1.1 nM (6 of 6 replicates). The variant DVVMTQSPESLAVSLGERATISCMMSYGWLLGSRNKRNVAWYQQKAGQPPKLLIYDRETRESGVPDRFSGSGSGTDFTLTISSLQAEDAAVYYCQQYDRLPLSFGGGTKVEIK [En_HC] gave 1.8 nM (6 of 6 replicates).

For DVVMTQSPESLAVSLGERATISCNLNDSPMYAQIHKDAIAWYQQKAGQPPKLLIYQETIRNAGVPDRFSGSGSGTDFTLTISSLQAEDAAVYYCQQYAKLPLSFGGGTKVEIK [En_Gibbs], the assay gave 1.7 nM (6 of 6 replicates). The variant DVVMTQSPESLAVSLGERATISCSLMQVAGYESNNHNSIAWYQQKAGQPPKLLIYDLRTRESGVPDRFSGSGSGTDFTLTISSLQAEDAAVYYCQQYHRLPLSFGGGTKVEIK [En_HC] gave 1.0 nM (6 of 6 replicates). With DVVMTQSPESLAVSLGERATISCKFGQSVLMGSYVRNSVAWYQQKAGQPPKLLIYQSNTRENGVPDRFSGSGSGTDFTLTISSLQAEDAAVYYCQQYDRLPLSFGGGTKVEIK [En_HC] the result was 1.9 nM (6 of 6 replicates). The variant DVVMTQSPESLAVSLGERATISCNFRQMVLYGSTLKNSVAWYQQKAGQPPKLLIYHASTREEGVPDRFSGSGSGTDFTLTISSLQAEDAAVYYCQQYHRLPLIFGGGTKVEIK [En_HC] gave 48 nM (6 of 6 replicates). For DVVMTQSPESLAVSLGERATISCQLLMATMQETYQKNSVAWYQQKAGQPPKLLIYHAETREDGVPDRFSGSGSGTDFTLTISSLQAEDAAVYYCQSYHRLPLSFGGGTKVEIK [En_HC], the assay gave 3.5 nM (6 of 6 replicates). The variant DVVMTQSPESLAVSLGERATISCKISNMVDYMSATHSSVAWYQQKAGQPPKLLIYQTSTREEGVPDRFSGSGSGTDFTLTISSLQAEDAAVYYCQQYHRLPLSFGGGTKVEIK [En_HC] showed 550 pM (6 of 6 replicates). The variant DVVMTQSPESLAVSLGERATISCGLTISGDETHEKAFSIAWYQQKAGQPPKLLIYNATNKAYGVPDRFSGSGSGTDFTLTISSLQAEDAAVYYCQQYARLPLTFGGGTKVEIK [En_Gibbs] gave 5.0 nM (6 of 6 replicates).

From the AlphaSeq antibody data of Li et al. 2023 (doi:10.1038/s41467-023-39022-2), copy in the FLAb collection.